# Assay results reported in patent US20130189747A1, “Compositions Comprising A Polypeptide Having Cellulolytic Enhancing Activity And A Sulfur-Containing Compound And Uses Thereof” (priority 2010, published 2013).
# Tested on: Trichoderma reesei cellulase composition
# Test: Hydrolysis of milled unwashed pretreated corn stover (PCS) by the Trichoderma reesei cellulase composition with/without GH61 polypeptide and sulfur-containing compound
# Type: biochemical
# Conditions: in the absence of a sulfur-containing compound
molecule,measurement,value
"T. aurantiacus GH61A polypeptide: GH61A polypeptide having cellulolytic enhancing activity (SEQ ID NO: 14), recombinantly prepared in Aspergillus oryzae JaL250 (protein, listed as Thermoascus aurantiacus) MSFSKIIATAGVLASASLVAGHGFVQNIVIDGKYYGGYLVNQYPYMSNPPEVIAWSTTATDLGFVDGTGYQTPDIICHRGAKPGALTAPVSPGGTVELQWTPWPDSHHGPVINYLAPCNGDCSTVDKTQLEFFKIAESGLINDDNPPGIWASDNLIAANNSWTVTIPTTIAPGNYVLRHEIIALHSAQNQDGAQNYPQCINLQVTGGGSDNPAGTLGTALYHDTDPGILINIYQKLSSYIIPGPPLYTG",Effect of the GH61 polypeptide on hydrolysis of milled unwashed PCS by the T. reesei cellulase composition,enhanced
